The test concerns the target PolQ ATPase enzyme (1-894) (Homo sapiens (Human), UniProt O75417). Put plainly: Polθ ATPase enzymatic assay (0.5 nM enzyme concentration), ADP-Glo. The format is biochemical. Particulars: read-out: IC50 (nM) [PolQ] 0.5 nM; 0.5 nM PolQ ATPase enzyme (1-894); average IC50. (In general: In ADP-Glo the light output rises with the ADP produced.)

By UniProt entry, the sequences of proteins in these tests, tags left out. Residues count along the entry.
UniProt O75417, 1-894 limits assumed: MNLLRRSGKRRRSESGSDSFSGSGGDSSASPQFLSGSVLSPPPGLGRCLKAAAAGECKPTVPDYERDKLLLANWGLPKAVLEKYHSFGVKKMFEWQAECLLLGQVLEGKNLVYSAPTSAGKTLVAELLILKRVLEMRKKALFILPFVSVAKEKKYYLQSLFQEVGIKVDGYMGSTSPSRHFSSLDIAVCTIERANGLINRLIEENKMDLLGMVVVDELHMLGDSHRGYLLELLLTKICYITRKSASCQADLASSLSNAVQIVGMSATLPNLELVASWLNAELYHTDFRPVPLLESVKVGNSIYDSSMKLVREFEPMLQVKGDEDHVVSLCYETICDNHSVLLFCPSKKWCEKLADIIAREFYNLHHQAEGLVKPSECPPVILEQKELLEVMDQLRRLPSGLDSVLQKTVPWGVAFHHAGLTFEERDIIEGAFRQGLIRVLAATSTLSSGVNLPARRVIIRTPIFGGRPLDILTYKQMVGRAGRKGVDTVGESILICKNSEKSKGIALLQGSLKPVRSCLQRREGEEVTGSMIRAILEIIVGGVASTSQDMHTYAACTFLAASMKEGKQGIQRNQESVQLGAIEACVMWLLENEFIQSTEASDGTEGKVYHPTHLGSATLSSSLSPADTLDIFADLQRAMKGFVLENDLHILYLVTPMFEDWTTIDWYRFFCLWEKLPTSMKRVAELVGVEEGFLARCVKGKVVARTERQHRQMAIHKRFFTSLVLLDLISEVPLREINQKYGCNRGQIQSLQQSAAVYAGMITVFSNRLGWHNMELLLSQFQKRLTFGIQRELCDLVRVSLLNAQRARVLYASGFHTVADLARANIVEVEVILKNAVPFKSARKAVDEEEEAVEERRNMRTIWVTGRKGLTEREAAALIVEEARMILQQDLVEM

SMILES strings stand for the structures. Some results are limits rather than exact numbers.

Usually IC50 stands for the concentration at which inhibition is half-maximal.

With `Cc1nnc(Cn2cc(-c3cc(Cl)ccc3C)c(C(=O)Nc3ncc(C#CC4CC4)s3)cc2=O)o1`, the IC50 was under 0.25 nM.

`Cc1nnc(Cn2cc(-c3cc(C(F)(F)F)ccc3C)c(C(=O)Nc3ncc(C#CC4CC4)s3)cc2=O)o1`: the IC50 is under 0.25 nM. As to `COc1ccc(C(F)F)cc1-c1cc(Nc2ccn(C)n2)ncc1C(=O)Nc1nnc(C#CC2CC2)s1`, the half-maximal inhibitory concentration (IC50) was determined as 11 nM. For `COc1cnc(C(F)F)cc1-c1cc(N2CCN(S(C)(=O)=O)C3(CC3)C2=O)ncc1C(=O)Nc1nnc(C#CC2CC2)s1`, the IC50 amounted to 0.54 nM.

Take `COc1cnc(C(F)F)cc1-c1cc(-c2nn[nH]n2)ncc1C(=O)Nc1nnc(C#CC2CC2)s1`: the IC50 is under 0.25 nM. As for `COc1ccc(C(F)(F)F)cc1-c1cc(Cc2nnc(C)o2)ncc1C(=O)Nc1ncc(C#CC2CC2)s1`, the 50% inhibitory concentration (IC50) worked out at 0.63 nM. With `COc1ccc(C(F)(F)F)cc1-c1cc(-c2ccnn2C)ncc1C(=O)Nc1nnc(C#CC2CC2)s1` the figure was 0.99 nM; with `COc1ccc(C(F)(F)F)cc1-c1cc(C(=O)c2nnc(C)o2)ncc1C(=O)Nc1nnc(C#CC2CC2)s1`, under 0.25 nM.
